Laboratory results taken from paper PMC6928688, “Identification of Novel PI3Kδ Selective Inhibitors by SVM-Based Multistage Virtual Screening and Molecular Dynamics Simulations” (International Journal of Molecular Sciences, 2019).

Protein sequences, listed by entry. Tags and fused reporters are not part of them. Lines headed by an entry give the natural chain unless they say otherwise; changes in a name come on top.
UniProt P48736: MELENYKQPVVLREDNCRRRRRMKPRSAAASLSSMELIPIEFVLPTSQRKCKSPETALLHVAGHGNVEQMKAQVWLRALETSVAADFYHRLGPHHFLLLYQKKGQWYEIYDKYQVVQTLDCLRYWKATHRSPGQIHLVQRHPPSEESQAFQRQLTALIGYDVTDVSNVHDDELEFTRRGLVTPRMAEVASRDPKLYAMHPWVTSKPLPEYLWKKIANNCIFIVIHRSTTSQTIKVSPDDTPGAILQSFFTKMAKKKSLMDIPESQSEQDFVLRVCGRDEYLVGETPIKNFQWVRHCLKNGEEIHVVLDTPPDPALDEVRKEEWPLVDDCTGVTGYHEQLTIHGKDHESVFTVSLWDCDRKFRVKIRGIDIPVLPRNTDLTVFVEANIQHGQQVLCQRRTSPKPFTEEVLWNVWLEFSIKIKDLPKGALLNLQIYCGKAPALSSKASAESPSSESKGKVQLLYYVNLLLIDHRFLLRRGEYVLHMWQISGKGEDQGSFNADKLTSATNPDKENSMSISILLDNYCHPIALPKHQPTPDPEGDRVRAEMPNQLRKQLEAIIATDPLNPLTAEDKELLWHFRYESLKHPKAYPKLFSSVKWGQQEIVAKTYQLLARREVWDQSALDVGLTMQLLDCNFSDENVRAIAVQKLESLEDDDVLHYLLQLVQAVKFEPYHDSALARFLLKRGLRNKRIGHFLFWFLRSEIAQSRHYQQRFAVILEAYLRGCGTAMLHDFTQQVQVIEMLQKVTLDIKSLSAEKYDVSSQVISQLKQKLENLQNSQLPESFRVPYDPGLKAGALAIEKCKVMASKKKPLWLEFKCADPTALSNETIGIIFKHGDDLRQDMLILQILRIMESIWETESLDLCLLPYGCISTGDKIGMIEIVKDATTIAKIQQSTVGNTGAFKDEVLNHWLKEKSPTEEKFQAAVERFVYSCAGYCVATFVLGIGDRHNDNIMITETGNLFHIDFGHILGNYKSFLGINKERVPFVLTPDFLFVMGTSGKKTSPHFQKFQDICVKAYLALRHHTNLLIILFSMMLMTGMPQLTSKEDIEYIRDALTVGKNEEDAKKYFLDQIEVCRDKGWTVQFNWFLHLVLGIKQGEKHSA
UniProt P42338: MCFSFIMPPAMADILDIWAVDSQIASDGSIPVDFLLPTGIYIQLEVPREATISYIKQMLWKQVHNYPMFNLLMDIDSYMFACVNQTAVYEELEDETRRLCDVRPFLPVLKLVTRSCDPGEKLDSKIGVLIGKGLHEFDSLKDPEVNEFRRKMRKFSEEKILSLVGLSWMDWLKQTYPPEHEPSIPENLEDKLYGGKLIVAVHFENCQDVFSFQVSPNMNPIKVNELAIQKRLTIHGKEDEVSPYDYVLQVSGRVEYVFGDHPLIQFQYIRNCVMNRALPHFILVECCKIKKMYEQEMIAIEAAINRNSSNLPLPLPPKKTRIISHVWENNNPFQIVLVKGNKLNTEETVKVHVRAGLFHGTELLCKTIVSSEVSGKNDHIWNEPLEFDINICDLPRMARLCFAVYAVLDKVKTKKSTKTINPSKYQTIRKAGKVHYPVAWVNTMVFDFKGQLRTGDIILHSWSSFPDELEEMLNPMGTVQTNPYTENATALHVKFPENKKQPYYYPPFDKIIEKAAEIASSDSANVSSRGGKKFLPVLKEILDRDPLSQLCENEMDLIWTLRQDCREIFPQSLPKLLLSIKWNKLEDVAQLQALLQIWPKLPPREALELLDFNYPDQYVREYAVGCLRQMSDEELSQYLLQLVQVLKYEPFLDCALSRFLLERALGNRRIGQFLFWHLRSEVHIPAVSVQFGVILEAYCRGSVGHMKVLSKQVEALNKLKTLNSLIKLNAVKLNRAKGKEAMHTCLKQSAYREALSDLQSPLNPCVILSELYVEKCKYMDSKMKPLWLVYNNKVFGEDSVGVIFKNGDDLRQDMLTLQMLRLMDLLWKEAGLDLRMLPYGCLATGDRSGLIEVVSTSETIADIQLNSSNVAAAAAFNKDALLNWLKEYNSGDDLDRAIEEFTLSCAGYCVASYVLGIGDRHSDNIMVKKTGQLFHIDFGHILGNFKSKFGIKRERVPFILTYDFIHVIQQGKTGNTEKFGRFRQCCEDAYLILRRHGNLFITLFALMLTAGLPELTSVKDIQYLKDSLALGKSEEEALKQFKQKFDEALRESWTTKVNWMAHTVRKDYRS

How the values were obtained:
[1] = molecular target: PI3Kγ (Homo sapiens, UniProt P48736); test: PI3K isoform selectivity, chemiluminescence kinase assay (γ); assay type: biochemical; details: isoform selectivity experiment
[2] = molecular target: PI3Kβ (Homo sapiens, UniProt P42338); test: PI3K isoform selectivity, chemiluminescence kinase assay (β); assay type: biochemical; details: isoform selectivity experiment

Which IC50 [1] does the source give for `O=c1cc(N2CCOCC2)oc2c(-c3ccccc3)cccc12` [LY294002, reference compound] here?
The IC50 was 3.51 µM.

And the IC50 [2]?
Its IC50 is 1.53 µM.
